Measured values from article PMC3325286, “Structural and Functional Diversity of Acidic Scorpion Potassium Channel Toxins” (PLoS ONE, 2012).

Experiments:
Kv1.x channel = settings: cited from earlier work
KCNQ1 channel [1] = target: T1, KCNQ1 channel (Homo sapiens, UniProt P15382+P51787); assay: cell-based; settings: HEK293, read-out: Inhibition of KCNQ1 channel current
SKCa channel = settings: cited from earlier work
KCNQ1 channel [2] = target: T1, KCNQ1 channel

CC(C)[C@@H]1NC(=O)[C@@H]2CSSC[C@@H]3NC(=O)[C@H](CC(=O)O)NC(=O)[C@H](CCC(=O)O)NC(=O)[C@@H](NC(=O)[C@@H](NC(=O)[C@H](C)N)[C@@H](C)O)CSSC[C@H](NC(=O)[C@H](CCCCN)NC(=O)[C@H](C)NC(=O)[C@H](CCCNC(=N)N)NC(=O)[C@H](C)NC(=O)[C@H](CC(N)=O)NC(=O)[C@H](CCC(N)=O)NC(=O)[C@H]([C@@H](C)O)NC(=O)[C@H](C)NC(=O)[C@H](CSSC[C@@H](C(=O)N[C@@H](CCC(=O)O)C(=O)N4CCC[C@H]4C(=O)N[C@@H](CCCCN)C(=O)O)NC1=O)NC(=O)[C@H](Cc1c[nH]cn1)NC(=O)[C@H](CCC(=O)O)NC(=O)[C@@H]1CCCN1C3=O)C(=O)N[C@@H](CC(=O)O)C(=O)N[C@@H](CC(N)=O)C(=O)N[C@@H](CC(=O)O)C(=O)N[C@@H](CCCCN)C(=O)N2 [BmP01, reference compound]
Block of Kv1.x channel (in words) (Kv1.x channel): low activity (micromolar range)
inhibition at 10 µM (KCNQ1 channel [1]): 4.82%
Inhibition of SKCa channel (in words) (SKCa channel): weakly inhibits
Effect on KCNQ1 channel (in words) (KCNQ1 channel [2]): only weak inhibitors
